Most compounds without a hit are left out; they make up all but 13% or so of the library.
JMJD2E inh = JMJD2E (human) inhibition. JMJD2E catalytic domain, FDH-coupled NADH fluorescence (FDH is formaldehyde dehydrogenase). Potency, µM (titrated, usually from 57.1 µM), for inactives: at the highest dose activity change, negative = inhibition, hits mostly inhibitors. 1.6% of 230,000 active. AID 2147; active = well fitted inhibition curve with a large enough effect, not every such curve was filed as active; inconclusive = small, poorly fitted or top-dose-only effect, or another doubt; inactive = no such curve, though single readings can be large or run the other way;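 note: potency is the fitted concentration of half-maximal effect; 0% = wells with enzyme and -100% = buffer wells without enzyme; nearly all actives have a fitted effect of over 50% in size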
Lamin A splicing = LMNA splicing modulation | HeLa LMNA splicing GFP/RFP minigene ratio, 48 h | Potency, µM (titrated, usually from 46.1 µM), for the others: top-dose ratio change, negative = inhibition, hits mostly inhibitors | 0.01% of 200,000 active | AID 1487; active = well fitted inhibition curve with a large enough effect in the signal ratio, with a control signal flat, not every such curve was filed as active; inconclusive = small, poorly fitted or top-dose-only effect, or effect the other way, or a change in a side signal; the % refers to the signal ratio; note: potency is the fitted concentration of half-maximal effect; % is set by controls: 0 for no effect and ±100 for the full control effect
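Read-out is the ratio of GFP to DsRed2 object intensity, acquired by 488 nm laser-scanning cytometry on HeLa lamin A-EGFP minigene reporter cells. Compound incubation 48 hrs at 37 °C in Opti-MEM with 2% FBS; DMSO 0.5% final.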
Sfp PPTase inh = Sfp phosphopantetheinyl transferase inhibition; Q9F4F7; Biochemical Sfp PPTase activity, qHTS; Potency, µM, for the others: max response, negative = inhibition, most hits filed as inhibitors; 310,000 tested, 3.5% active; AID 1490; active = well fitted inhibition curve with a large enough effect; inconclusive = small, poorly fitted or top-dose-only effect, or another doubt; inactive = no such curve, though single readings can be large or run the other way;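 also: the enzyme is Sfp with the accession as filed and its product quenches rhodamine fluorescence; potency is read from the fitted curve at half-maximal effect; 0% = enzyme reaction without inhibitor and -100% = no enzyme wells; top concentration of the series not given in the record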
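With Hepes-Na pH 7.6 buffer containing 10 mM MgCl2, Sfp (15 nM) modified BHQ-2-YbbR (12.5 uM) using rhodamine-CoA (5 uM). Two reads 30 minutes apart at 525/598 nm yielded each well's rate.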
miR-21 FLuc = miR-21 reporter, rising signal; HeLa miR-21 FLuc reporter, luciferase, 48 h; Potency, µM (titrated, usually from 38.3 µM), without a hit: top-dose reporter change, positive = more light; AID 2288; 340,000 tested, under 10 active; active = well fitted rising curve with a large enough effect; inconclusive = small, poorly fitted or top-dose-only effect; inactive = no such curve, though single readings can be large or run the other way;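 further: % of control where 0% means no effect; miR-21 action dims this reporter so a rising signal means less miR-21 action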
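HeLa cells endogenously expressing miR-21, stably carrying CMV-driven firefly luciferase with a downstream miR-21 binding site, 2000 cells/well. Titrations up to approximately 40 uM, 48 hours; luciferase luminescence read.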
G9a block = blocks human histone lysine methyltransferase G9a | Potency, µM (doses to about 102 µM), for inactives: at the highest dose activity, negative = inhibition, most hits filed as inhibitors | G9a H3K9 monomethylation, AlphaScreen, 2 h | Q96KQ7 | 8.8% of 350,000 active; note: potency is the fitted concentration of half-maximal effect; % is set by controls: 0 for no effect and ±100 for the full control effect; nearly all actives have a fitted effect of over 75% in size
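AlphaScreen detection with an anti-monomethyl H3K9 antibody quantified product after a 2 h room-temperature reaction containing 500 nM biotinylated H3K9 peptide, 20 µM SAM and 20 nM enzyme, which had been preincubated 15 min with compound.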
ALDH1A1 inh = blocks purified human ALDH1A1 activity; P00352; Purified ALDH1A1, NADH fluorescence, propionaldehyde substrate; Potency, µM (top dose mostly 75.3 µM), for inactives: top-dose activity, negative = inhibition, actives largely listed as inhibitors; 7.3% of 220,000 active; AID 1030; active = well fitted inhibition curve with a large enough effect, not every such curve was filed as active; inconclusive = small, poorly fitted or top-dose-only effect, or another doubt; inactive = no such curve, though single readings can be large or run the other way;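 note: potency is the fitted concentration of half-maximal effect; plate controls were no enzyme wells and a reference inhibitor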
Active calls of the source: *; ? = inconclusive; nt = not tested or not shown; [ ] = remark or other dose. Unless noted, calls come from the whole dose curve; as a rule, active = well fitted curve in the direction sought with a large enough effect; inconclusive = small, poorly fitted or top-dose-only effect, or another doubt; inactive = no such curve, though single readings can be large; an effect the other way counts as inactive or inconclusive.

SMILES	JMJD2E inh	Lamin A splicing	Sfp PPTase inh	miR-21 FLuc	G9a block	ALDH1A1 inh
CN(C)c1ccc(C(c2nnnn2C(C)(C)C)N2CCN(C(=O)c3ccco3)CC2)cc1 (configuration not stated)	-8%	-2%	-24%	-6%	10µM*	?
COc1ccccc1C(c1nnnn1C(C)(C)C)N1CCN(C(=O)c2ccco2)CC1 (configuration not stated)	2%	6%	5%	0%	4%[59 µM]	25µM*
CC(C)(C)n1nnnc1C(c1cccnc1)N1CCOCC1 (configuration not stated)	0%	-4%[46 µM]	13%	4%	-3%	6%
COCCn1nnnc1C(c1ccc(OC)c(OC)c1)N1CCN(C(=O)c2ccco2)CC1 (configuration not stated)	nt	nt	-5%	0%	-18%	nt
CCOc1ccc(C(c2nnnn2C(C)(C)C)N2CCN(C(=O)c3ccco3)CC2)cc1 (configuration not stated)	nt	nt	-4%	0%	-3%	nt
COc1cccc(C(=O)N2CCCCC2CCN2CCCCC2)c1 (configuration not stated)	nt	nt	nt	1%	0%[59 µM]	nt
CCOC(=O)c1c(C)oc2ncnc(Nc3cc(Cl)ccc3OC)c12	nt	9%[46 µM]	nt	-2%	1%[59 µM]	nt
COc1ccc(C2CC(=O)NC(NC(=O)c3ccc(Br)cc3)=N2)c(OC)c1OC (configuration not stated)	nt	?	nt	-3%	-6%[59 µM]	nt
Cc1noc(C)c1C(=O)N1CCC2(CC1)CCN(c1ncccn1)CC2	nt	nt	13%	nt	0%[12.7 µM]	?
CC(C)Sc1nnc(NC(=O)c2ccc3c(c2)OCO3)s1	nt	nt	3%	-54%	5%	nt

Filtered by structure: the entries above containing a halogen
SMILES	JMJD2E inh	Lamin A splicing	Sfp PPTase inh	miR-21 FLuc	G9a block	ALDH1A1 inh
CCOC(=O)c1c(C)oc2ncnc(Nc3cc(Cl)ccc3OC)c12	nt	9%[46 µM]	nt	-2%	1%[59 µM]	nt
COc1ccc(C2CC(=O)NC(NC(=O)c3ccc(Br)cc3)=N2)c(OC)c1OC (configuration not stated)	nt	?	nt	-3%	-6%[59 µM]	nt

Record cards (already shown):
CCOC(=O)c1c(C)oc2ncnc(Nc3cc(Cl)ccc3OC)c12 across the screens: JMJD2E inh: nt; Lamin A splicing: 9%[46 µM]; Sfp PPTase inh: nt; miR-21 FLuc: -2%; G9a block: 1%[59 µM]; ALDH1A1 inh: nt
Cc1noc(C)c1C(=O)N1CCC2(CC1)CCN(c1ncccn1)CC2 across the screens: JMJD2E inh: nt; Lamin A splicing: nt; Sfp PPTase inh: 13%; miR-21 FLuc: nt; G9a block: 0%[12.7 µM]; ALDH1A1 inh: ?

Additional results follow:
SMILES	JMJD2E inh	Lamin A splicing	Sfp PPTase inh	miR-21 FLuc	G9a block	ALDH1A1 inh
COc1ccccc1C(c1nnnn1C(C)(C)C)N1CCCCCC1 (configuration not stated)	0%	3%	-5%	-7%	25µM*	?
CC(C)CCn1nnnc1CN1CCN(C(=O)c2ccco2)CC1	nt	nt	-2%	-5%	50µM*	nt
Cc1ccc(C(c2nnnn2C(C)(C)C)N2CCC(C)CC2)cc1 (configuration not stated)	4%	-4%	-7%	-6%	?	-10%
CC(C)(C)n1nnnc1C(c1ccccc1F)N1CCN(C2CCCC2)CC1 (configuration not stated)	1%	11%	19%	-9%	-37%[12.7 µM]	7%
Cc1ccc(C)c(N2CCN(C(c3ccc(N(C)C)cc3)c3nnnn3C(C)(C)C)CC2)c1 (configuration not stated)	-5%	-6%	0%	-2%	4.5µM*	-13%
O=C(c1ccco1)N1CCN(Cc2nnnn2C2CCCCC2)CC1	nt	nt	11%	-1%	11%[59 µM]	nt
Cc1cc(C)c2[nH]c(=O)c(C(c3nnnn3C(C)(C)C)N3CCN(C(=O)c4ccco4)CC3)cc2c1 (configuration not stated)	-3%	8%	18µM*	-2%	?	?
C=CCN1CCN(C(c2ccccc2)c2nnnn2CCC(C)C)CC1 (configuration not stated)	0%	20%	1%	0%	50µM*	-1%
CC(C)CCn1nnnc1C(c1ccccc1)N1CCN(C)CC1 (configuration not stated)	4%	-2%	5%	-1%	1%[12.7 µM]	4%
C=CCN1CCN(C(c2cc(OC)ccc2OC)c2nnnn2CC2CCCO2)CC1 (configuration not stated)	1%	9%	1%	-3%	13µM*	28µM*
C=CCN1CCN(C(c2ccc(OC)c(OC)c2)c2nnnn2C(C)(C)C)CC1 (configuration not stated)	5%	1%	79µM*	-5%	50µM*	2%
CC(C)(SC(=S)N1CCCCCC1)C(=O)O	-1%	nt	79µM*	1%	nt	?
CC(C)(SC(=S)N1CCOCC1)C(=O)O	2%	8%	-10%	-19%	?	?
COc1ccc(N/N=C(/C#N)S(=O)(=O)C(C)(C)C)cc1	-4%	nt	17%	0%	50µM*	-2%
CSc1ccc(N/N=C(/C#N)S(=O)(=O)C(C)(C)C)cc1	5%	nt	1%	5%	50µM*	11%
COc1cccc(-c2noc(C3CC(=O)N(c4ccc(F)cc4)C3)n2)c1OC (configuration not stated)	nt	12%[46 µM]	nt	2%	7%[59 µM]	nt
Cc1c(Cl)cccc1NC(=S)N1CCC(N(C)CC2CCCO2)CC1 (configuration not stated)	2%	nt	9%	4%	34%[59 µM]	2%
CCn1c(SCC(=O)c2ccc(OC)cc2)nnc1C1CC1	-4%	11%	-14%	-16%	15%[12.7 µM]	-4%
CCn1nnnc1SCC(=O)c1cc(OC)ccc1OC	1%	10%	-21%	-13%	?	14µM*
CCn1c(SCC(=O)c2cc(OC)ccc2OC)nnc1C1CC1	-1%	8%	-17%	-17%	50µM*	?
CCCCN(C(=O)CSCC(=O)Nc1ccc(C)cc1)c1c(N)n(CCCC)c(=O)[nH]c1=O	nt	nt	nt	nt	-27%	nt
Cc1ccc(NC(=O)c2cc(C(=O)c3cc(Cl)ccc3O)cn(-c3ccc(C)cc3)c2=O)cc1	169%	?	?	15%	-6%[59 µM]	19%
CCNC(=S)/C(=C(/[O-])c1ccc([N+](=O)[O-])cc1)[n+]1ccccc1	-6%	nt	-15%	1%	nt	?
O=[N+]([O-])c1cccc(/C([O-])=C(/C(=S)Nc2ccccc2)[n+]2ccccc2)c1	0%	?	?	-44%	10µM*	?
C=CCNC(=S)/C(=C(/[O-])c1ccc([N+](=O)[O-])cc1)[n+]1ccccc1	22µM*	9%[46 µM]	4%	-3%	45µM*	?
Cc1ccc(C2C=C(c3ccc(F)cc3)Nc3nc(CCCO)nn32)cc1 (configuration not stated)	nt	nt	nt	7%	-41%[59 µM]	nt
COc1ccc(C2C=C(c3cccs3)Nc3nc(CCCO)nn32)cc1 (configuration not stated)	?	-15%	16µM*	-18%	40µM*	?
OCCCc1nc2n(n1)C(c1ccccc1)C=C(c1ccccc1)N2 (configuration not stated)	?	-3%	-6%	0%	40µM*	?
COc1ccc(C2C=C(c3ccccc3)Nc3nc(CCCO)nn32)cc1 (configuration not stated)	?	-6%	5%	-3%	?	?
NC(Cc1cc(I)c(Oc2cc(I)c(O)c(I)c2)c(I)c1)C(=O)O (configuration not stated)	13%	nt	-2%	nt	-38%[2.33 µM]	16µM*

Compound activity (PubChem BioAssay)
